# Assay: The compound was tested for inhibition of Bacillus subtilis chorismate mutase (BcCM)
compound,measurement,value
C=C(OC1C=C(C(=O)O)C=CC1O)C(=O)O (stereo unspecified),Ki,500 µM
